According to patent US9475840B2, “Protease-resistant compounds useful as shuttles through the blood-brain barrier and shuttle-cargo constructs” (UNIVERSITAT DE BARCELONA, priority 2012, dated 2016):

System: co-culture of brain endothelial cells and astrocytes
Experiment: Transport across the BBB, in vitro co-culture cell assay (transwell)
Conditions: percentage of transport after a 2 hours assay; — = not detected in acceptor compartment

Substance	Transport (%) (2 h)
Rhodamine b-L-Lys(Antibody)-D-Pro-D-Trp-D-Val-D-Pro-D-Ser-D-Trp-D-Met-D-Pro-D-Pro-D-Arg-D-His-D-Thr-NH2 [Example 17]	0.13 ± 0.08
Rhodamine b-L-Lys(Antibody)-D-Pro-D-Trp-D-Val-D-Pro-D-Ser-D-Trp-D-Met-D-Pro-D-Pro-D-Arg-D-His-D-Thr-NH2 [Example 18]	0.15 ± 0.04
Rhodamine b-L-Lys(Antibody)-D-Pro-D-Trp-D-Val-D-Pro-D-Ser-D-Trp-D-Met-D-Pro-D-Pro-D-Arg-D-His-D-Thr-NH2 [Example 20]	0.30 ± 0.16
